ChEMBL document CHEMBL5113391, “Halogen substituents enhance oxime nucleophilicity for reactivation of cholinesterases inhibited by nerve agents” (2022)

What was measured:
Acetylcholinesterase = Acetylcholinesterase (Homo sapiens, UniProt P22303); assay: Reactivation of OP compound induced inhibition of recombinant human AChE using ATCh as substrate by Ellman's method
[1] = Stability of compound in PBS at 1 mg/ml for 8 hrs by UHPLC analysis; details: buffer
[2] = Stability of compound in unionized water at 1 mg/ml for 8 hrs by UHPLC analysis; details: buffer
Cholinesterase = Cholinesterase (Homo sapiens, UniProt P06276); assay: Reactivation of OP compound induced inhibition of BChE in human plasma using ATCh as substrate by Ellman's method

SMILES | Ki (Acetylcholinesterase) [µM] | also measured
NC(=O)c1cc[n+](CCCC[n+]2cc(F)c(/C=N/O)c(F)c2)cc1 | 63 | –
NC(=O)c1cc[n+](CCC[n+]2cc(Cl)c(/C=N/O)c(Cl)c2)cc1.[Br-].[Br-] | – | Stability [1]: Unstable; Stability [2]: Stable
NC(=O)c1cc[n+](C/C=C/C[n+]2ccc(/C=N/O)c(F)c2)cc1 | 36 | –
NC(=O)c1cc[n+](CCCC[n+]2ccc(/C=N/O)c(F)c2)cc1 | 44 | Ki (Cholinesterase): 25 µM
NC(=O)c1cc[n+](C/C=C/C[n+]2cc(F)c(/C=N/O)c(F)c2)cc1 | 68 | –
NC(=O)c1cc[n+](CCC[n+]2cc(F)c(/C=N/O)c(F)c2)cc1 | 28 | –
NC(=O)c1cc[n+](CCC[n+]2ccc(/C=N/O)c(F)c2)cc1 | 35 | –
